Laboratory results from patent US20080050387A1, “Non-Androgen Dependent Roles for Androgen Receptor and Non-Androgen Related Inhibitors of Androgen Receptor” (priority 2003, published 2008).

Amino acid sequences for entries named in this document (tags omitted). Chains listed by the source or under a name are the forms on record and can include a tag or linker.
UniProt P10275, with tags, fused parts or gaps DEL79-80/DUP473-473: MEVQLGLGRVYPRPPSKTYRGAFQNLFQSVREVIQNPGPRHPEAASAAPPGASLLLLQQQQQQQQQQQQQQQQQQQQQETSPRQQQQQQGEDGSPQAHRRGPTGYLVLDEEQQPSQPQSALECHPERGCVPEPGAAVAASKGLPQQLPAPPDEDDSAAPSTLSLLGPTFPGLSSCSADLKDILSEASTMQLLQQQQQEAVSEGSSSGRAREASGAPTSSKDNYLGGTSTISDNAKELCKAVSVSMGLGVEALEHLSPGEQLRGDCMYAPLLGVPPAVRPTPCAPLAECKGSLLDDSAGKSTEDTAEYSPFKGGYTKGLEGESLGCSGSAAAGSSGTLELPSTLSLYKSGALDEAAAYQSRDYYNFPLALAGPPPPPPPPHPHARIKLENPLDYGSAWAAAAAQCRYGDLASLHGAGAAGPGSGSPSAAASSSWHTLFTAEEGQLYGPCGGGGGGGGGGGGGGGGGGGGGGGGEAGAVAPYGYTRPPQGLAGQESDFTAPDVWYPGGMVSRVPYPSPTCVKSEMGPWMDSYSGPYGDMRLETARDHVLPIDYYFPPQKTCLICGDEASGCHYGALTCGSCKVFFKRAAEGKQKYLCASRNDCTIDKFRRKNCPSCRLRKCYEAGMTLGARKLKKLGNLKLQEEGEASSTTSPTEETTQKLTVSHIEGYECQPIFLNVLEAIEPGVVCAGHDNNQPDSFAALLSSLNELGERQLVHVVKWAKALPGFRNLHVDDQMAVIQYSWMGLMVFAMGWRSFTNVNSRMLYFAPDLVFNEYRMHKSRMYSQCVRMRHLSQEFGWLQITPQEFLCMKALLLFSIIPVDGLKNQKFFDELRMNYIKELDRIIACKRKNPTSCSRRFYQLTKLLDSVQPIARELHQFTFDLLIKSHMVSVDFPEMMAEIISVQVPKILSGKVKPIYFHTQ

Biological target: T1, interaction of AR with ARA70 (Homo sapiens, UniProt P10275, DEL79-80/DUP473-473)
T1 construct: expressed in transfected cells; host or cells: COS-1
Assay: Mammalian two-hybrid assay AR / ARA70 in COS-1 cells
Assay type: cell-based
Conditions: GAL4-ARA70 and VP16-AR, pG5-Luc
Procedure: COS-1 and PC-3 cells were maintained in early to mid-log phase in DMEM medium, supplemented with 10% fetal bovine serum (FBS), 50 units/ml penicillin and 50 μg/ml streptormnycin in incubators with humidified air and 5% carbon dioxide at 37° C. LNCaP cells were maintained in RPMI (GIBCO/BRL) medium. Twenty-four h prior to transfection, cells washed with Hanks' buffered saline solution, trypsinized, and seeded to be a density of 40-60% confluence for transfection. Cells in 12 well plates were refed with fresh medium 2 hours before transfection and transfected according to the “SuperFect Transfection” instructions (QIAGEN). After 2-3 h incubation, cells were treated with medium supplemented with charcoal-dextran treated FBS containing either ethanol or ligands. Cells were further incubated at 37° C. for 24 h, washed with PBS, and harvested.

B1: GSK3β: glycogen synthase kinase 3β, serine/threonine protein kinase (SEQ ID NO:5), wild type (protein)
chain: MSGRPRTTSFAESCKPVQQPSAFGSMKVSRDKDGSKVTTVVATPGQGPDRPQEVSYTDTKVIGNGSFGVVYQAKLCDSGELVAIKKVLQDKRFKNRELQIMRKLDHCNIVRLRYFFYSSGEKKDEVYLNLVLDYVPETVYRVARHYSRAKQTLPVIYVKLYMYQLFRSLAYIHSFGICHRDIKPQNLLLDPDTAVLKLCDFGSAKQLVRGEPNVSYICSRYYRAPELIFGATDYTSSIDVWSAGCVLAELLLGQPIFPGDSGVDQLVEIIKVLGTPTREQIREMNPNYTEFKFPQIKAHPWTKDSSGTGHFTSGVRVFRPRTPPEAIALCSRLLEYTPTARLTPLEACAHSFFDELRDPNVKLPNGRDTPALFNFTTQELSSNPPLATILIPPHARIQAAASTPTNATAASDANTGDRGQTNNAASASASNST
- interaction of AR with ARA70: inhibited
